Reference: patent publication US7265118B2, “Regulation of substrate activity” (Point Therapeutics, Inc., priority 1998, dated 2007)
Read-outs that look alike come from different tables or passages of the source.

Amino acid sequences for entries named in this document (tags omitted). Residues count along the entry.
UniProt P28843, 37-760 limits assumed: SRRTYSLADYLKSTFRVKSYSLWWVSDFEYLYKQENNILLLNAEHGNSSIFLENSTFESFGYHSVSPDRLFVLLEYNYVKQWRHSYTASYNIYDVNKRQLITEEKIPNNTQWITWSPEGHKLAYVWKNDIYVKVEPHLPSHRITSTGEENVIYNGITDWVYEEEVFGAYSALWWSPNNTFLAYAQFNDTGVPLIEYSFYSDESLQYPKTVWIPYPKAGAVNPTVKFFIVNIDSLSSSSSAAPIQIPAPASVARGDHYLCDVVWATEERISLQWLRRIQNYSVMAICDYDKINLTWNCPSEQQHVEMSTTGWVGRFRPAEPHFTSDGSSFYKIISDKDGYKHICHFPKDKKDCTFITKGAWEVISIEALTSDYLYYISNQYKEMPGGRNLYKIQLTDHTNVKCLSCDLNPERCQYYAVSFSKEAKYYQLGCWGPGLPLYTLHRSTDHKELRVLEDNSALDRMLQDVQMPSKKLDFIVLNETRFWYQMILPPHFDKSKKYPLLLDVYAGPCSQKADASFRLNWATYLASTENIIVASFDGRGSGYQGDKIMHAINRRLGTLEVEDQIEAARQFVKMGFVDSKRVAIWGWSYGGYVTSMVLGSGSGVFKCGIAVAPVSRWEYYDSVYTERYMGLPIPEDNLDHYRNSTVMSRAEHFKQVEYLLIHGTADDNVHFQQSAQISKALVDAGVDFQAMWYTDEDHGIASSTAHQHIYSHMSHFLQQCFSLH

Target: serum DPP-IV (Mus musculus, UniProt P28843)
Settings: mice, gavage, blood two hours post administration

CC(C)C(N)C(=O)N1CCCC1B(O)O (stereo not drawn) [Val-boroPro]
inhibition of serum DPP-IV activity (dose 2 μg): Total inhibition | inhibition of serum DPP-IV activity (dose 5 μg): Total inhibition | inhibition of serum DPP-IV activity (doses below 2 μg): dose dependent decrease of DPP-IV inhibition
